Patent US9573954B2, “Pyrazolopyrimidine compounds” (University Health Network, priority 2012, dated 2017)
Where two headings read alike, the source gives them in different places. Values belong to the molecule of their own block, whether it stands above or below them.

Sequences of proteins named here, by UniProt entry; tags and fusion partners are left off.
UniProt P33981, whole entry: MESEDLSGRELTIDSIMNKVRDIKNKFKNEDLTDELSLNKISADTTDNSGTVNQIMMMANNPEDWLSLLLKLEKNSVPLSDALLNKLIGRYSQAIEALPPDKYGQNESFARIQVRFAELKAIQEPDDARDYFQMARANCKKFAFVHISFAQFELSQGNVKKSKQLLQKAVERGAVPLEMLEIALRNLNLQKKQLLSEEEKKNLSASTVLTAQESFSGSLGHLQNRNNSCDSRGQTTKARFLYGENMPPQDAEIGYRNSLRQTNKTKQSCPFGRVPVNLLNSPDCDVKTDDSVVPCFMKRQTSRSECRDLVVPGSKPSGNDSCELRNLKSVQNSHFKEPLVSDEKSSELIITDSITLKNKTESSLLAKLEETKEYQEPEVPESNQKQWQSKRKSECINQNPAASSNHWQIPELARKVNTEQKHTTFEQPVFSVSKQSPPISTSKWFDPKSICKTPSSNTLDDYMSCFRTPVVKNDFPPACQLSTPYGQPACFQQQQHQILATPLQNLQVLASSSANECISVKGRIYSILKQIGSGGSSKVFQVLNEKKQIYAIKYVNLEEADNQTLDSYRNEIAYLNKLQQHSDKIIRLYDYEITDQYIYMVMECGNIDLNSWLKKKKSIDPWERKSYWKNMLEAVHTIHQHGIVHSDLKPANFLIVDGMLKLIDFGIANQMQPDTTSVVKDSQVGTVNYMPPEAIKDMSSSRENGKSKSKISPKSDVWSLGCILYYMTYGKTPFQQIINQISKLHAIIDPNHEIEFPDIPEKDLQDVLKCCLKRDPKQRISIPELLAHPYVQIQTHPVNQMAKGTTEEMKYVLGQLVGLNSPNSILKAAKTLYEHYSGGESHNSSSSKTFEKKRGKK

Columns and labels:
[1] = tested on: colon cancer cells (HCT116); assay: Cancer cell line growth inhibition, Sulforhodamine B assay, HCT116
Experimental: (§1) Breast cancer cells (MDA-MB-231 and MDA-MB-468), colon cancer cells (HCT116) and ovarian cancer cells (PA-1 and OVCAR-3) were seeded (1000 to 4000 in 80 μl per well depending on the cell growth rate) into 96 well plates 24 hours before compound overlay. Compounds were prepared as 10 mM stock solutions in 100% DMSO which were diluted with DMEM (Dulbecco's Modified Eagle's Medium) cell growth Medium (Invitrogen, Burlington, ON, Canada) containing 10% FBS (Fetal Bovine Serum) to concentrations ranging from 50 nM to 250 μM. Aliquots (20 μl) from each concentration were overlaid to 80 μl of the pre-seeded cells in the 96 well plates to make final concentrations of 10 nM to 50 μM. The cells were cultured for 5 days before the Sulforhodamine B assay (SRB) was performed to determine the compound's cell growth inhibition activity.
(§2) Sulforhodamine B (purchased from Sigma, Oakville, ON, Canada) is a water-soluble dye that binds to the basic amino acids of the cellular proteins. Thus, colorimetric measurement of the bound dye provides an estimate of the total protein mass that is related to the cell number. the cells are fixed in situ by gently aspirating off the culture media and adding 50 μl ice cold 10% Trichloroacetic Acid (TCA) per well and incubate at 4° C. for 30-60 min, The plates are washed with H2O five times and allowed to air dry for 5 min. Addition of 50 μl 0.4% (w/v) SRB solution in 1% (v/v) acetic acid to each well and incubation for 30 min at RT completes the staining reaction. Following staining, plates are washed four times with 1% acetic acid to remove unbound dye and then allowed to air dry for 5 min. The stain is solubilized with 100 μl of 10 mM Tris pH 10.5 per well. Absorbance is read at 570 nm.
(§3) The percentage (%) of relative growth inhibition was calculated by comparing to DMSO treated only cells (100%). GI50's were determined for compounds with cytotoxic activity. The GI50 was calculated using GraphPad PRISM software (GraphPad Software, Inc., San Diego, Calif., USA). GI50 (growth inhibition) is the compound concentration that causes 50% inhibition of cell growth.
(§4) In Table 1 below, GI50 value ranges for compound examples against breast cancer cell lines (MDA-MB-468), colon cancer cell lines (HCT116) and ovarian cancer cell lines (PA-1) are given. […] The GI50 ranges are indicated as “A,” “B,” and “C,” for values less than or equal to 0.1 μM; those greater than 0.1 μM and less than or equal to 0.5 μM; and those greater than 0.5 μM, respectively.
In Table 2 below, GI50 value ranges for compound examples against breast cancer cell lines (MDA-MB-231), colon cancer cell lines (HCT116) and ovarian cancer cell lines (PA-1) are given. […]

[2] = target: human TTK (Homo sapiens, UniProt P33981); assay: TTK inhibition assay (indirect ELISA)
[3] = tested on: ovarian cancer cells (OVCAR-3); assay: Cancer cell line growth inhibition, Sulforhodamine B assay, OVCAR-3; conditions: read-out: Cancer Cell Line GI50 Range OVCAR-3, OVCAR-3 ovarian cancer cell line
Experimental: as §1, §2, §3
In Table 3 below, GI50 value ranges for compound examples against breast cancer cell lines (MDA-MB-468), colon cancer cell lines (HCT116) and ovarian cancer cell lines (OVCAR-3) are given. […] The GI50 ranges are indicated as “A,” “B,” and “C,” for values less than or equal to 0.1 μM; those greater than 0.1 μM and less than or equal to 0.5 μM; and those greater than 0.5 μM, respectively.

[4] = tested on: breast cancer cells (MDA-MB-468); assay: Cancer cell line growth inhibition, Sulforhodamine B assay, MDA-MB-468; conditions: read-out: Cancer Cell Line GI50 Range MDA-MB-468, MDA-MB-468 breast cancer cell line
Experimental: as §1, §2, §3, §4
In Table 3 below, GI50 value ranges for compound examples against breast cancer cell lines (MDA-MB-468), colon cancer cell lines (HCT116) and ovarian cancer cell lines (OVCAR-3) are given. […]

[5] = tested on: Ovarian 2393A tumor initiating cells; assay: Tumor-initiating cell growth inhibition, Alamar Blue assay, ovarian TICs; conditions: read-out: Tumor Initiating Cell GI50 Range Ovarian 2393A, Ovarian 2393A TICs, 6 days
Source text: (§5) Non-tissue or tissue cultured treated T-75 flask and 96-well plates were purchased from VWR. Vitamin B-27 supplement, MEM NEAA (minimum essential medium non essential amino acids), sodium pyruvate, L-glutamine, N2 supplement, penicillin-streptomycin and fungizone/amphotericin B were obtained from Invitrogen. Lipid mixture, heparin and EGF were purchased from Sigma; bFGF from BD Biosciences. Tumor Initiating Cells (TICs) from colon were routinely maintained using non-tissue cultured treated T-75 flasks in DMEM:F12 medium containing 0.2XB-27 supplement, 4 ug/ml heparin, 1×MEM NEAA, 1×sodium pyruvate, 1 mM glutamine, 10 pg/ul bFGF, 20 pg/ul EGF, 1× N2 supplement, lipid mixture, penicillin-streptomycin and fungizone/amphotericin B. Ovarian TICs were routinely maintained using tissue cultured treated T-75 flasks in DMEM:F12 medium containing IXB-27 supplement, 4 ug/ml heparin, 20 pg/ul bFGF, 20 pg/ul EGF and penicillin-streptomycin.
(§6) Compounds described herein were dissolved in DMSO and further diluted in cell culture medium for GI50 determination. Colon TICs were trypsinized and seeded into non-tissue cultured treated 96-well plates with 4,000 cells/well. After 24 h, compound was added into the cell culture at different concentrations, and the final concentration of DMSO was adjusted to 0.1%. Cells were then cultured at 37° C. for 9 days. Ovarian TICs were trypsinized and seeded into tissue cultured treated 96-well plates with 1,000 cells/well. After 24 h, compound was added into the cell culture at different concentrations, and the final concentration of DMSO was adjusted to 0.1%. Cells were then cultured at 37° C. for 6 days. Cell viability was assessed by Alamar Blue assay: 10 ul of Alamar Blue was added into each well. After 4 hours incubation at 37° C., fluorescence was recorded at excitation 544 and emission 590. GI50 (Growth inhibition) was calculated using GraphPad Prism 4.0 software.
(§7) In Table 1 below, GI50 value ranges for compound examples against TICs (Colon 12 and Ovarian 2393A) are given. […]

[6] = tested on: Colon 12 tumor initiating cells; assay: Tumor-initiating cell growth inhibition, Alamar Blue assay, colon TICs; conditions: read-out: Tumor Initiating Cell GI50 Range Colon 12, Colon 12 TICs, 9 days
Source text: as §5, §6, §7

[7] = read-out: Cancer Cell Line GI50 Range HCT116
[8] = read-out: TTK IC50 Range (denoted with an asterisk), 16 μM ATP (Sigma cat# A7699)

Structure (SMILES): Cc1cc(-c2cnn3c(NCC4CCOCC4)nc(OC4CCCC4)nc23)ccc1C(=O)NC1CC1
GI50 [1, 7]: 100 to 500 nM
IC50 [2, 8]: < 100 nM
GI50 [3]: > 500 nM
GI50 [4]: 100 to 500 nM

Structure (SMILES): O=C(NC1CC1)c1ccc(-c2cnn3c(NCC4CCOCC4)nc(NC4CCCC4)nc23)cc1F
GI50 ([5]; tested form: HCl): 100 to 500 nM
GI50 ([1]; read-out: Cancer Cell Line GI50 Range HCT116, tested form: HCl): > 500 nM
IC50 ([2]; read-out: TTK IC50 Range (denoted with an asterisk), 16 μM ATP (Sigma cat# A7699), tested form: HCl): < 100 nM
GI50 ([6]; tested form: HCl): 100 to 500 nM
GI50 ([3]; tested form: HCl): > 500 nM
GI50 ([4]; tested form: HCl): > 500 nM

Structure (SMILES): COc1cccc(Oc2nc(NCC3CCOCC3)n3ncc(-c4ccc(C(=O)NC5CC5)c(F)c4)c3n2)c1
IC50 [2, 8]: < 100 nM

Structure (SMILES): Cc1cc(-c2cnn3c(NC[C@H]4CC[C@@H](O)CC4)cc(NC4CCCOC4)nc23)ccc1C(=O)NC1CC1 (stereo partly shown)
GI50 ([5]; tested form: TFA salt): 100 to 500 nM
GI50 ([1]; read-out: Cancer Cell Line GI50 Range HCT116, tested form: TFA salt): < 100 nM
IC50 ([2]; read-out: TTK IC50 Range, 100 μM ATP, tested form: TFA salt): < 100 nM
GI50 ([6]; tested form: TFA salt): 100 to 500 nM
GI50 ([3]; tested form: TFA salt): 100 to 500 nM
GI50 ([4]; tested form: TFA salt): < 100 nM

Structure (SMILES): Cc1cc(-c2cnn3c(NCC4CC(O)C4)cc(NC4CCCC4)nc23)ccc1C(=O)NC1CC1 (stereo not shown)
GI50 ([3]; tested form: HCl salt): 100 to 500 nM

Next, values leading:

IC50 [2, 8]: > 500 nM
Structure (SMILES): CC(C)C(=O)Nc1ccc(-c2cnn3c(NCC4CCOCC4)nc(OC4CCCC4)nc23)cc1

GI50 [5]: < 100 nM
GI50 [1, 7]: < 100 nM
IC50 [2, 8]: < 100 nM
GI50 [6]: < 100 nM
GI50 [3]: < 100 nM
GI50 [4]: < 100 nM
Structure (SMILES): Cc1cc(-c2cnn3c(NCC4CCOCC4)nc(Oc4cccc(F)c4F)nc23)ccc1C(=O)NC1CC1
